Experimental data as given in PubChem BioAssay AID463079 (The Scripps Research Institute Molecular Screening Center, 2010).
Only a part is listed here, and it is no random draw. Calls of active or inactive are those of the source.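 Rule for the calls: active = inhibition above that plate's mean sample inhibition plus 3 SD (cut at about 26% in these data); inactive = the rest.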

Test: ATP-evoked calcium signal inhibitors, parental CHO, primary screen, counter-screen for OX1R antagonist project, cell-based, fluorescence, Fluo-8 calcium dye (AID 463079);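 note: 0% = ATP-challenged DMSO wells and 100% = DMSO wells without ATP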
Conditions: parental CHO-K1, ATP-induced calcium, Fluo-8 fluorescence; at 5.6 µM; stronger effect = higher value
How it was run: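 Test system: untransfected parental CHO cell line. Compound: one dose, 5.6 µM nominal. Detection: intracellular calcium via Fluo-8 no-wash fluorescent dye. Measure: % inhibition. Benchmarks: ATP-challenged DMSO wells low, unchallenged DMSO wells high.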

Row | Structure (SMILES) | inhibition
1 | Nc1cc(N)c2nonc2c1[N+](=O)[O-] | inactive: -7.94%
2 | CC(C)CC(=O)NC(Sc1ccc(Cl)cc1)C(Cl)(Cl)Cl (stereo not drawn) | inactive: -15.5%
3 | CN1CCCC(OC(=O)C(c2ccccc2)c2ccccc2)C1 (stereo not drawn) | inactive: -20.9%
4 | Clc1ccc(Cl)c(NC2=NCC(CBr)S2)c1 (stereo not drawn) | inactive: -15.5%
5 | COc1ccccc1OP(=O)(Nc1ccc(C)cn1)Oc1ccccc1OC | inactive: -8.36%
6 | Cc1ccc(OP(=O)(Nc2nccs2)Oc2ccc(C)cc2)cc1 | inactive: -25.3%
7 | CN(C(=O)Cc1ccc(Cl)c(Cl)c1)[C@H]1CCCC[C@H]1N1CCCC1 | inactive: -18.1%
8 | Cc1ccc(N/C(=N/P(=O)(N2CCOCC2)N2CCOCC2)N2CCOCC2)cc1 | inactive: -4.99%
9 | NC(=O)c1cc([N+](=O)[O-])cc([N+](=O)[O-])c1N | inactive: 4.43%
10 | COc1ccc(N/C(=N/P(=O)(N2CCOCC2)N2CCOCC2)N2CCOCC2)cc1 | inactive: 2.44%
11 | COc1ccc2nc(NP(=O)(c3ccccc3)c3ccccc3)sc2c1 | inactive: -11.5%
12 | COc1cc(I)ccc1[As](=O)(O)O | inactive: -8.98%
13 | Cc1c2c(nc3ccccc13)SC(C(Cl)Cl)C2 (stereo not drawn) | inactive: -18.3%
14 | O=C(OC1CN2CCC1CC2)C12CC3CC(CC(C3)C1)C2 (stereo not drawn) | inactive: -11.1%
15 | Cc1cc(=O)[nH]c(N[N+](=O)[O-])n1 | inactive: 4.24%
16 | CC(C)NC(=O)NP(=O)(Oc1ccccc1)Oc1ccccc1 | inactive: -4.05%
17 | CCN(CC)C(=S)SC(NC=O)C(Cl)(Cl)Cl (stereo not drawn) | inactive: -4.36%
18 | O=[N+]([O-])c1cc([N+](=O)[O-])c(-c2ccn[nH]2)s1 | inactive: -2.69%
19 | ClCCSc1nnc(-c2cccnc2)o1 | inactive: -2.75%
20 | CC(C)c1ccc(OP(=O)(Nc2ccccn2)Oc2ccccc2F)cc1 (stereo not drawn) | inactive: -9.32%
21 | Cc1ccc(OP(=O)(Nc2ccc([N+](=O)[O-])cn2)Oc2ccc(C)cc2)cc1 | inactive: -1.61%

Row | Structure (SMILES) | inhibition
22 | Cc1ccc2nc3c(c(C)c2c1)CC(C(Cl)Cl)S3 (stereo not drawn) | inactive: -24.6%
23 | C[As](=O)(O)c1cccc(C(=O)O)c1 | inactive: -6.86%
24 | O=[As](O)(c1ccc(O)cc1)c1ccccc1O | inactive: -4.14%
25 | COc1cc(C(=O)NCC2(N3CCOCC3)CCCCC2)ccc1OCC(C)C | inactive: -15%
26 | Cc1cc(SC(NC=O)C(Cl)(Cl)Cl)ncn1 (stereo not drawn) | inactive: 1.48%
27 | O=P(Nc1ccccn1)(c1cccc2ccccc12)c1cccc2ccccc12 | inactive: -33.3%
28 | CCOC(=O)Nc1cccc([As](=O)(O)O)c1 | inactive: -0.99%
29 | Cc1cc(SC(NC(=O)c2ccccc2)C(Cl)(Cl)Cl)nc(C(C)C)n1 (stereo not drawn) | inactive: -16.2%
30 | CCOC(=O)Nc1ccc([As](=O)(O)O)c(O)c1 | inactive: 2.61%
31 | CCC(C)N(CC(C)C)C(=S)SC(NC(C)=O)C(Cl)(Cl)Cl (stereo not drawn) | inactive: -0.03%
32 | O=C(OC1CN2CCC1CC2)c1cccc([N+](=O)[O-])c1 (stereo not drawn) | inactive: -6.23%
33 | CCOC(=O)c1ccc(NC(=O)C(C)(CCl)SC)cc1 (stereo not drawn) | inactive: -9.97%
34 | O=C(COc1ccccc1)OC1CN2CCC1CC2 (stereo not drawn) | inactive: -4.75%
35 | O=C(Nc1ccncc1[N+](=O)[O-])c1ccc([N+](=O)[O-])cc1[N+](=O)[O-] | inactive: -8.48%
36 | COP1(=S)c2c(C)nn(CCC#N)c2N=C(c2ccc(F)cc2)N1C (stereo not drawn) | inactive: -13.8%
37 | CN(C(=O)Cc1ccc(Cl)c(Cl)c1)[C@@H]1CCCC[C@H]1N1CCCC1 | inactive: -10.6%
38 | CC(C)/C=N\N=C(\N)N[N+](=O)[O-] | inactive: 9.11%
39 | O=[As](O)(c1ccccc1Br)c1ccccc1Br | inactive: -10.6%
40 | CC1(CBr)Cn2c(nc3ccccc3c2=O)S1 (stereo not drawn) | inactive: -8.59%
41 | COc1ccccc1CNC(=O)COC(=O)C(O)(c1ccccc1)c1ccccc1 | inactive: -7.76%
42 | Clc1n[nH]nc1-c1nn[nH][15n]1 | inactive: -9.24%

Row | Structure (SMILES) | inhibition
43 | CC(C)(C)C(=O)NC(Sc1ncccn1)C(Cl)(Cl)Cl (stereo not drawn) | inactive: -18.6%
44 | CCC1=CC2Cc3nc4ccc(Cl)cc4c(N)c3C(C1)C2 (stereo not drawn) | inactive: -16.2%
45 | O=P1(Nc2ccccn2)COc2ccccc2OC1 | inactive: 10.3%
46 | CCOP(=O)(NC(=NC(C)c1ccccc1)NC(C)c1ccccc1)OCC (stereo not drawn) | inactive: -14.2%
47 | CCOP(=O)(Nc1ccc(C)cn1)OCC | inactive: -3.18%
48 | CN(CCCl)Cc1cc(Cl)c(NC2=NCCN2)c(Cl)c1 | inactive: 0.4%
49 | Nc1cccc([As](=O)(O)c2ccccc2)c1 | inactive: 3.96%
50 | O=[As](O)(c1cccs1)c1cccs1 | inactive: -3.14%
51 | Cc1ccc(OCC(=O)OC2CN3CCC2CC3)cc1 (stereo not drawn) | inactive: -3.53%
52 | NS(=O)(=O)c1cccc(NC(=O)COC(=O)C(O)(c2ccccc2)c2ccccc2)c1 | inactive: -14.3%
53 | O=P1(Nc2ccc(Br)cn2)COc2ccccc2OC1 | inactive: -3.48%
54 | O=P1(Nc2ncccn2)COc2ccccc2OC1 | inactive: 1.3%
55 | CN(C)C1(CNC(=O)c2ccc(S(C)(=O)=O)cc2)CCCCC1 | inactive: 12.1%
56 | O=C(/C=C/c1ccccc1)OC1CN2CCC1CC2 (stereo not drawn) | inactive: -10.8%
57 | Cc1nn(-c2ccccc2)c2c1P(=O)(N1CCOCC1)N(C)C(c1ccccc1)=N2 (stereo not drawn) | inactive: -7.34%
58 | Cc1ccc(C(=O)OC2CN3CCC2CC3)cc1 (stereo not drawn) | inactive: -8.17%
59 | CC1CCC(C(C)C)C(OP(=O)(Nc2ccccn2)c2ccccc2)C1 (stereo not drawn) | inactive: -22.3%
60 | N#CCCN(C(=O)COC(=O)C(O)(c1ccccc1)c1ccccc1)c1ccc(F)cc1 | inactive: -23%
61 | CCOP1(=S)c2c(C)nn(CCC#N)c2N=C(c2ccc(F)cc2)N1C (stereo not drawn) | inactive: -13%
62 | CN(C(=O)Cc1ccccc1)[C@@H]1CC[C@]2(CCCO2)C[C@H]1N1CCCC1 | inactive: -20.2%
63 | O=[N+]([O-])c1ccc2c(c1)nnn2O | inactive: -9.67%

Row | Structure (SMILES) | inhibition
64 | CN(C)C(=O)c1cc([N+](=O)[O-])cc2c1-c1c(cc([N+](=O)[O-])cc1[N+](=O)[O-])C2=O | inactive: 7.8%
65 | CN(C(=O)Cc1ccc(Cl)c(Cl)c1)[C@H]1CC[C@@]2(CCCO2)C[C@@H]1N1CCCC1 | inactive: -20.3%
66 | NC(=O)Nc1ccc([As](=O)(O)O)cc1 | inactive: -10%
67 | O=C(O)COc1ccc([As](=O)(O)O)cc1[N+](=O)[O-] | inactive: -7.69%
68 | Nc1ccccc1[As](=O)(O)c1ccccc1 | inactive: 8.69%
69 | CCOP1(=S)c2c(C)nn(CCC#N)c2N=C(c2ccccc2F)N1C (stereo not drawn) | inactive: -4.08%
70 | O=P(Nc1nccs1)(Oc1ccccc1)Oc1ccccc1 | inactive: -16.3%
71 | O=P(Nc1nccs1)(c1ccccc1)c1nc2ccccc2s1 (stereo not drawn) | inactive: 13.3%
72 | CS(=O)(=O)c1cc([N+](=O)[O-])c2no[n+]([O-])c2c1 | inactive: -11.6%
73 | COc1cc(C2NCCC3(OCCO3)C2(C)C)cc(OC)c1OC (stereo not drawn) | inactive: -21.7%
74 | CCOP(=O)(Nc1cccc2ccccc12)OCC | inactive: -9.73%
75 | Nc1cccc2c([As](=O)(O)O)cccc12 | inactive: 7.4%
76 | Cc1ccc(NCCc2c([N+](=O)[O-])cc([N+](=O)[O-])cc2[N+](=O)[O-])cc1 | inactive: -20.4%
77 | CCCOP(=S)(Nc1nc(N)cc(=O)[nH]1)OCCC | inactive: -15.6%
78 | Cc1cccc(OCC(=O)OC2CN3CCC2CC3)c1 (stereo not drawn) | inactive: -15.9%
79 | O=[As](O)(c1cccc(O)c1)c1cccc(O)c1 | inactive: 4.55%
80 | O=C(OC1CN2CCC1CC2)c1ccc(Cl)cc1 (stereo not drawn) | inactive: -13.8%
81 | O=[As](O)(O)c1cccnc1 | inactive: -11.8%
82 | COc1cc(C(=O)NCC2(N3CCOCC3)CCCCC2)cc(Cl)c1OC(C)C | inactive: -22.2%
83 | CS(=O)(=O)c1ccc(Cl)c(NC(=O)COC(=O)C(O)(c2ccccc2)c2ccccc2)c1 | inactive: -15.9%
